Assay results reported in ChEMBL document CHEMBL5725625, “Substituted 4-phenylpiperidines, their preparation and use” (2018).

Assay: Scintillation Proximity RBP4 Binding Assay: Untagged human RBP4 purified from urine of tubular proteinuria patients was purchased from Fitzgerald Industries International. It was biotinylated using the EZ-Link Sulfo-NHS-LC-Biotinylation kit from Pierce following the manufacturer's recommendations. Binding experiments were performed in 96-well plates (OptiPlate, PerkinElmer) in a final assay volume of 100 μl per well in SPA buffer (1×PBS, pH 7.4, 1 mM EDTA, 0.1% BSA, 0.5% CHAPS). The reaction mix contained 10 nM 3H-Retinol (48.7 Ci/mmol; PerkinElmer), 0.3 mg/well Streptavidin-PVT beads, 50 nM biotinylated RBP4 and a test compound. Nonspecific binding was determined in the presence of 20 μM of unlabeled retinol. The reaction mix was assembled in the dark under dim red light. The plates were sealed with clear tape (TopSeal-A: 96-well microplate, PerkinElmer), wrapped in the aluminum foil, and allowed to equilibrate 6 hours at room temperature followed by overnight incubation at +4° C. Radiocounts were measured using a TopCount NXT counter (Packard Instrument Company).

SMILES | pIC50
O=C(c1n[nH]c2c1CCN(C1COC1)C2)N1CCC(c2cc(F)cc(F)c2C(F)(F)F)CC1 | 7.68
O=C(c1n[nH]c2c1CCN(CC(F)(F)F)C2)N1CCC(c2cc(F)cc(F)c2C(F)(F)F)CC1 | 7.62

pIC50: −log10 of the molar value.
